Assays:
[1] = molecular target: purified recombinant β-secretase (BACE1) (Homo sapiens, UniProt P56817); assay: BACE1 FRET enzymatic assay (Invitrogen)
[2] = tested on: sAPPβ (BACE1 cleavage of SEAP-APPwt) in SY5Y-BACEGFP-SEAPAPPwt cells; assay: cell-based BACE1 assay (sAPPβ modified ELISA); details: read-out: cell-based IC50 (sAPPβ), 12-point dose-response; 12 concentrations 0.1 nM to 30 μM, 96-well format (FIG. 8)

Protein sequences, listed by entry. Tags and fused reporters are not part of them. Residues count along the entry.
UniProt P56817, 46-501 limits assumed: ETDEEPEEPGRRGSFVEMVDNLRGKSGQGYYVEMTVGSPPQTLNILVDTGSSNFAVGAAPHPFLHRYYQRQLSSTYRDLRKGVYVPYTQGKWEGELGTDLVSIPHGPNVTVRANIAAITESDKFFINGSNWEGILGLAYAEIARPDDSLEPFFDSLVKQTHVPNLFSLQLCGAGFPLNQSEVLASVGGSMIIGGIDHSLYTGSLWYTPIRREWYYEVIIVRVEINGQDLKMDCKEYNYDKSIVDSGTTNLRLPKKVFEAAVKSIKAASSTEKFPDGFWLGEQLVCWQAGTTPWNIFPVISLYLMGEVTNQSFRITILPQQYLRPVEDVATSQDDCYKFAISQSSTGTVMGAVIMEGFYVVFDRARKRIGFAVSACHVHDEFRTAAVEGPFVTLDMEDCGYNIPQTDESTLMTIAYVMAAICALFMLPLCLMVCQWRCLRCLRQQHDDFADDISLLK

CN1C(=O)C2(NNC(c3cccc4ccccc34)S2)c2ccccc21 (stereo not drawn)
dose-dependent inhibition of β-secretase ([1]; 3 concentrations (0.1, 1, and 10 μM)): exhibited a dose-dependent effect
IC50 ([1]; read-out: enzymatic IC50 (FRET-based BACE1 assay), 12 doses): 2310 nM
IC50 [2]: 430 nM

From patent publication US20110071124A1, “Compounds that Inhibit Production of sAPPB and AB and Uses Thereof” (The Trustees of Columbia University in the City of New York, priority 2008, published 2011)
